Experiments:
[1] = tested on: BKS.Cg-+Lepr^db/+Lepr^db (db/db) mice; assay: Anti-diabetic efficacy in db/db mice (blood sugar, insulin, adiponectin, glucose and insulin tolerance)
Procedure: In the present example, in order to verify efficacy to prevent and treat diabetes of the compound of Chemical Formula I (CMDD-X or Compound 7) according to the present invention, BKS.Cg-+Lepr^db/+Lepr^db (db/db) mice as an insulin-independent diabetes animal model and general mice (C57BL/6J) fed with high-fat feedstuff were used. After the disease animal model was orally administered with CMDD-X, the diabetes-related index between the administered group and the control group was measured to verify the efficacy as an agent for preventing and treating diabetes. BKS.Cg-+Lepr^db/+Lepr^db (db/db) mice (male, 7-week old) as type 2 diabetes animal model were purchased and used. The experiment animals were adapted to a housing environment for 1 week while pellet type general diet (lab-chow) was supplied, and then divided into 2 groups of 18 mice each by randomized block design to have similar blood sugar and body weight. For general mice fed with high-fat feedstuff as another animal model, 6-week old C57BL/6J mice was purchased, and then were adapted to a lap environment for 2 weeks. After that, high-fat diet containing 35% fat diet (weight ratio, Research Diets. Co. Ltd.) was supplied for 14 weeks. The efficacy to prevent and treat diabetes by CMDD-X was observed through oral administration. A mouse fed with only 0.5% carboxylmethyl cellulose, as a medicine delivery, was used as a negative control group. The medicine was orally administered to the db/db mice for 4 weeks, a total of 28 days, and to the C57BL/6J mice, which was fed with the high-fat diet, for the last 6 weeks, at a dose of 10 mg/kg/day. The experiment animals after administration were fasted for 15 hours before autopsy, and then the blood taken from the orbital venous treated with heparin. After that, the plasma was separated by centrifugation of 1,000×g at 4° C. for 15 minutes, and then refrigerated at −70° C. until analysis was conducted to measure the insulin and Adiponectin concentrations. The pancreatic tissue was fixed in 10% formaldehyde solution containing PBS. The other organ tissues were rapidly cooled in the liquid nitrogen immediately after removal thereof, and kept at −70° C. and then analyzed. T-test was conducted with respect to the control group and the administered group, a significant difference of less than 5% (P<0.05) was determined as having have a statistical significance.
In order to measure the blood sugar reduction efficacy of the compound of Chemical Formula I (CMDD-X or Compound 7), the blood was collected through tail veins of the db/db mice before experiment ending, after feeding, and after stomach was empty for 15 hours, and the blood sugar was measured by using a glucose oxidase method. After food intake, the blood sugar of the CMDD-X-administered group was lower than that of the control group by 23.6%, and the blood sugar at the time of an empty stomach was reduced by about 26.3% (FIG. 4). In the Compound 7-administered group, the blood sugar after food intake and the blood sugar at the time of an empty stomach were 27% and 28%, respectively.
The insulin and adiponectin concentrations of the plasma, obtained from the orbital venous of the db/db mice orally administered with CMDD-X (or Compound 7) for 4 weeks, were measured by using an Elisa Kit.
On the end day of the experiment, the db/db mice were fasted for 15 hours, and then intraperitoneally administered with a glucose solution of 1 g per 1 kg body weight. The blood was collected from the tails of the db/db mice according to the time. The results of measurement of blood sugar by the times of the CMDD-X-administered group and the control group were shown in FIG. 8. […] Whereas, in the control group, the glucose sugar level was not recovered to a level before glucose administration even at 120 minutes. […] The final blood sugar of the CMDD-X-administered group was decreased as compared with the control group by 57%. […]

[2] = tested on: C57BL/6J mouse and ob/ob fatty liver models; assay: Fatty liver models in mice (LXR agonist T0901317, high fat, MCD diet); details: oral 10 mg/kg
Description: In order to verify efficacy to prevent and treat fatty liver of the compounds according to the present invention, a fatty liver occurrence model by a medicine, a fatty liver occurrence model by high fat, and a fatty liver occurrence model by methione-deficient diet (MCD) were used. The mice fed with general diet (chow diet) was simultaneously administered with a nuclear receptor LXR agonist (T0901317) to induce fatty liver, and then the efficacy to prevent and treat fatty liver by the compound of Chemical Formula I was tested. After the disease animal model was orally administered with CMDD-X (or Compound 7), the fatty liver-related index between the administered group and the control group was measured to verify the efficacy to prevent and treat fatty liver. The mouse fed with only 0.75% carboxylmethyl cellulose, as a medicine delivery, was used as a negative control group. First, the C57BL/6J mouse fed with general feedstuff was orally administered with the LXR agonist [T0901317 (10 mg/kg)] once per day for 5 days, to thereby induce fatty liver. In addition, the compound of Chemical Formula I (CMDD-X and Compound 7, 10 mg/kg) and the LXR agonist were simultaneously administered, to verify efficacy to prevent and treat fatty liver. The C57BL/6J mouse was fed with 35% high-fat feedstuff for 8 weeks, to induce fatty liver, and then CMDD-X (or Compound 7), together with high-fat diet, was orally administered at a dose of 10 mg/kg/day for 6 weeks. The ob/ob animal model was fed with MCD diet for 4 weeks to induce fatty liver and, at the same time, was orally administered with the compound of Chemical Formula I (CMDD-X or Compound 7, 10 mg/kg), to verify the efficacy to prevent and treat the occurrence of fatty liver. As an analysis result, fat absorption into the liver was inhibited in all of the fatty liver occurrence model by medicine, the fatty liver occurrence model by high fat, and the fatty liver occurrence model by MCD.

CC(C)=CCC/C(C)=C/[C@@H]1CC(C)=C[C@]2(C=C(CO)[C@H]3CC(=O)C(C)=C[C@H]3O2)O1
glucose tolerance: blood sugar level after glucose administration ([1]; glucose 1 g/kg intraperitoneally after 15 hours fasting): significantly decreased at 120 minutes
insulin tolerance test: blood sugar after insulin administration ([1]; insulin 3 unit/kg): significantly decreased as compared with the control group for 40 minutes after insulin administration
insulin tolerance test: final blood sugar decreased as compared with the control group ([1]; insulin 3 unit/kg): 57%
blood sugar after food intake, lower than that of the control group ([1]; oral 10 mg/kg/day, 4 weeks): 23.6%
blood sugar at the time of an empty stomach, reduction ([1]; oral 10 mg/kg/day, 4 weeks, fasted 15 hours): about 26.3%
Adiponectin polymer in plasma ([1]; oral 10 mg/kg/day, 4 weeks, p<0.01): statistically significant increase
total amount of Adiponectin in plasma ([1]; oral 10 mg/kg/day, 4 weeks, p<0.05): significantly increased
blood insulin concentration, relative to that of the control group ([1]; oral 10 mg/kg/day, 4 weeks, plasma, Elisa Kit): 70%
fat absorption into the liver ([2]; fatty liver models by medicine (T0901317), high fat and MCD): inhibited
ALT (liver-function biomarker) ([2]; fatty liver models): reduction
MCP-1 and TNFα (inflammatory cytokines) ([2]; fatty liver models): reduction
blood LDL ([2]; fatty liver models): decreased
liver function ([2]; fatty liver models): significantly improved

Reference: patent US20130274212A1, “Sesterterpene Compounds and Use Thereof” (SNU R&DB FOUNDATION, priority 2010, published 2013)
